Data from ChEMBL document CHEMBL1961873, “Compounds: GSK PKIS; Assays: Nanosyn kinase panel” (2012).
The list shows a part of the results, in another mix than the full data.

Protein sequences, listed by entry. Tags and fused reporters are not part of them.
Serine/threonine-protein kinase B-raf (Homo sapiens), P15056, UniProt P15056, whole entry V600E: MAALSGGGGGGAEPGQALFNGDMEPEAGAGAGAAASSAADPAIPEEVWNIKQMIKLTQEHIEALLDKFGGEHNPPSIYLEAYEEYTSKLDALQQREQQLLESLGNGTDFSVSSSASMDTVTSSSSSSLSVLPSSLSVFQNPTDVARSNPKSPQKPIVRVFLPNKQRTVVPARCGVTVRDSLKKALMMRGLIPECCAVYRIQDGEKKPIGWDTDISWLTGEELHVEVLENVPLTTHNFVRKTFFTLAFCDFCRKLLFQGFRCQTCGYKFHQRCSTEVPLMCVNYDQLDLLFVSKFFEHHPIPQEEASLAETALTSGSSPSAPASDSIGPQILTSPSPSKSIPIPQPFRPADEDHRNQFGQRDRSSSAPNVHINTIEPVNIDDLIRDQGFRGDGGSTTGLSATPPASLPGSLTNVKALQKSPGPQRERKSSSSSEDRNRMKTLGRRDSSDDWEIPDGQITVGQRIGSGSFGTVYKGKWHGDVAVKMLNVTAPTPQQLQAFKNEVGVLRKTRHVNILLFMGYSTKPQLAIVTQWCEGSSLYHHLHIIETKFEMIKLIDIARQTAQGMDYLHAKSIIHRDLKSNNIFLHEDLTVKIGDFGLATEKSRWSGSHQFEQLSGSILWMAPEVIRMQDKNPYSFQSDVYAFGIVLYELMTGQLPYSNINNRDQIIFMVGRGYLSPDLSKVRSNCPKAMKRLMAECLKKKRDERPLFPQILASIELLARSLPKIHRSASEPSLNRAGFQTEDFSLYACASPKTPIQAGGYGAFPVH

System: Serine/threonine-protein kinase B-raf (Homo sapiens), P15056 [V600E]
Conditions: at 1 µM
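Further: enzyme inhibition of the BRAF V599E mutant kinase, given as mean percent inhibition, screened within the GSK PKIS kinase inhibitor set.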

## O=C1Nc2ccc(I)cc2C1=Cc1cc(Br)c(O)c(Br)c1
  inhibition: 13.7%
